This note sets out measurements from patent US20110060036A1, “Branched Multifunctional Nanoparticle Conjugates And Their Use” (EMORY UNIVERSITY, priority 2008, published 2011).

In data set [1] the test system is MDA-MB-231 breast cancer cell line. Briefly: MTT cytotoxicity assay. Particulars: two different concentrations, treated 4 hours, 48 hours incubation. It is filed as cell-based, human. The method, then:
The cytotoxicity of these conjugates was tested on multiple cancer cell lines. Cytotoxicity effects of the PG-drug conjugates were evaluated by using a standard 3-(4,5-dimethylthiazol-2-yl)-2,5-diphenyl tetrazolium bromide (MTT) assay. The cells were cultured in RPMI 1640 containing 100 units/mL penicillin G, 100 ug/mL streptomycin sulfate. The medium was supplemented with 10% heat-inactivated fetal bovine serum. The tumor cells were cultured in tissue culture flask in a humidified incubator at 37° C. in an atmosphere of 5% CO2 and 95% air. Cancer cells (about 60% confluency) were treated with drug conjugates or free drug (added as DMSO solution) for 4 hours, and then culture medium was replaced with fresh one. After 48 hours incubation, MTT solution was added (incubated for 2 hours) and UV-vis absorption was measured at 490 nm with 670 nm as the reference wavelength.
FIG. 1E summarizes the cytotoxicity test results for the conjugates compared to free TX added as DMSO solution.
On the technique in general: Formazan colour is commonly taken as a measure of viable cells.

Data set [2] relates to MDA-MB-231 tumor. Briefly: In-vivo imaging and biodistribution in MDA-MB-231 tumor-bearing nude mice. More on the design: species or system athymic nude mice. The method, then:
Athymic nude mice were purchased from Charles River and housed in a specific pathogen-free animal facility at Emory University. In-vivo imaging, blood circulation and biodistribution studies were performed. MDA-MB-231 tumor model was used for testing the in-vivo imaging of these polymer-drug conjugates. Three weeks before the test, the cells were harvested and 5×10^6 cells were suspended in a mixture of 50 μL culture medium and 50 μL Matrigel. The cells were injected into the mammary fat pad of athymic nude mice. When the size of the tumor reached 400-500 mm^3, the near infrared dye (Cy5.5, GE healthcare) labeled conjugates were systemically injected. Polymer drugs containing 10 nmol of cy5.5 were injected into mice through the tail vein. […] For biodistribution studies, mice were killed at time point of 6 and 144 hours to collect major organs and tumors for quantification of cy5.5 fluorescence in organs and tumors.
In-vivo delivery of nanoparticles to solid tumors is a complex process, and can be achieved by both passive and active targeting mechanisms, as shown in FIG. 3A. […] This finding also confirms that in this case the amount of nanoparticles delivered to tumor tissues is primarily determined by the extravasation of nanoparticles (FIG. 3A) though the leaky vascular structures formed during the fast and defective angiogenesis. […]

As for PG-2′-O— succinyl-paclitaxel [GT], the cytotoxicity result in data set [1] was “killed a significant amount of cells”. For the same substance, the “accumulation at tumor sites, in-vivo optical imaging” value in data set [2] (tumors 400-500 mm^3, 6 hours after tail vein injection, increasing over 48 hours) is recorded as “accumulation at the tumor sites”. In addition, the “accumulation in barely palpable tumors” value in data set [2] (tumors about 2-3 mm in diameter) was “very little signal above the background”.
